Biological target: LRRK2 (Homo sapiens, UniProt Q5S007, G2019S)
Experiment: In Vitro LRRK2 Assay (LabChip 3000, fluorescently-labeled peptide substrate, ATP)
Type: biochemical
Conditions: read-out: LRRK2 Ki (KI), Table 8

By UniProt entry, the sequences of proteins in these tests, tags left out.
UniProt Q5S007, whole entry G2019S: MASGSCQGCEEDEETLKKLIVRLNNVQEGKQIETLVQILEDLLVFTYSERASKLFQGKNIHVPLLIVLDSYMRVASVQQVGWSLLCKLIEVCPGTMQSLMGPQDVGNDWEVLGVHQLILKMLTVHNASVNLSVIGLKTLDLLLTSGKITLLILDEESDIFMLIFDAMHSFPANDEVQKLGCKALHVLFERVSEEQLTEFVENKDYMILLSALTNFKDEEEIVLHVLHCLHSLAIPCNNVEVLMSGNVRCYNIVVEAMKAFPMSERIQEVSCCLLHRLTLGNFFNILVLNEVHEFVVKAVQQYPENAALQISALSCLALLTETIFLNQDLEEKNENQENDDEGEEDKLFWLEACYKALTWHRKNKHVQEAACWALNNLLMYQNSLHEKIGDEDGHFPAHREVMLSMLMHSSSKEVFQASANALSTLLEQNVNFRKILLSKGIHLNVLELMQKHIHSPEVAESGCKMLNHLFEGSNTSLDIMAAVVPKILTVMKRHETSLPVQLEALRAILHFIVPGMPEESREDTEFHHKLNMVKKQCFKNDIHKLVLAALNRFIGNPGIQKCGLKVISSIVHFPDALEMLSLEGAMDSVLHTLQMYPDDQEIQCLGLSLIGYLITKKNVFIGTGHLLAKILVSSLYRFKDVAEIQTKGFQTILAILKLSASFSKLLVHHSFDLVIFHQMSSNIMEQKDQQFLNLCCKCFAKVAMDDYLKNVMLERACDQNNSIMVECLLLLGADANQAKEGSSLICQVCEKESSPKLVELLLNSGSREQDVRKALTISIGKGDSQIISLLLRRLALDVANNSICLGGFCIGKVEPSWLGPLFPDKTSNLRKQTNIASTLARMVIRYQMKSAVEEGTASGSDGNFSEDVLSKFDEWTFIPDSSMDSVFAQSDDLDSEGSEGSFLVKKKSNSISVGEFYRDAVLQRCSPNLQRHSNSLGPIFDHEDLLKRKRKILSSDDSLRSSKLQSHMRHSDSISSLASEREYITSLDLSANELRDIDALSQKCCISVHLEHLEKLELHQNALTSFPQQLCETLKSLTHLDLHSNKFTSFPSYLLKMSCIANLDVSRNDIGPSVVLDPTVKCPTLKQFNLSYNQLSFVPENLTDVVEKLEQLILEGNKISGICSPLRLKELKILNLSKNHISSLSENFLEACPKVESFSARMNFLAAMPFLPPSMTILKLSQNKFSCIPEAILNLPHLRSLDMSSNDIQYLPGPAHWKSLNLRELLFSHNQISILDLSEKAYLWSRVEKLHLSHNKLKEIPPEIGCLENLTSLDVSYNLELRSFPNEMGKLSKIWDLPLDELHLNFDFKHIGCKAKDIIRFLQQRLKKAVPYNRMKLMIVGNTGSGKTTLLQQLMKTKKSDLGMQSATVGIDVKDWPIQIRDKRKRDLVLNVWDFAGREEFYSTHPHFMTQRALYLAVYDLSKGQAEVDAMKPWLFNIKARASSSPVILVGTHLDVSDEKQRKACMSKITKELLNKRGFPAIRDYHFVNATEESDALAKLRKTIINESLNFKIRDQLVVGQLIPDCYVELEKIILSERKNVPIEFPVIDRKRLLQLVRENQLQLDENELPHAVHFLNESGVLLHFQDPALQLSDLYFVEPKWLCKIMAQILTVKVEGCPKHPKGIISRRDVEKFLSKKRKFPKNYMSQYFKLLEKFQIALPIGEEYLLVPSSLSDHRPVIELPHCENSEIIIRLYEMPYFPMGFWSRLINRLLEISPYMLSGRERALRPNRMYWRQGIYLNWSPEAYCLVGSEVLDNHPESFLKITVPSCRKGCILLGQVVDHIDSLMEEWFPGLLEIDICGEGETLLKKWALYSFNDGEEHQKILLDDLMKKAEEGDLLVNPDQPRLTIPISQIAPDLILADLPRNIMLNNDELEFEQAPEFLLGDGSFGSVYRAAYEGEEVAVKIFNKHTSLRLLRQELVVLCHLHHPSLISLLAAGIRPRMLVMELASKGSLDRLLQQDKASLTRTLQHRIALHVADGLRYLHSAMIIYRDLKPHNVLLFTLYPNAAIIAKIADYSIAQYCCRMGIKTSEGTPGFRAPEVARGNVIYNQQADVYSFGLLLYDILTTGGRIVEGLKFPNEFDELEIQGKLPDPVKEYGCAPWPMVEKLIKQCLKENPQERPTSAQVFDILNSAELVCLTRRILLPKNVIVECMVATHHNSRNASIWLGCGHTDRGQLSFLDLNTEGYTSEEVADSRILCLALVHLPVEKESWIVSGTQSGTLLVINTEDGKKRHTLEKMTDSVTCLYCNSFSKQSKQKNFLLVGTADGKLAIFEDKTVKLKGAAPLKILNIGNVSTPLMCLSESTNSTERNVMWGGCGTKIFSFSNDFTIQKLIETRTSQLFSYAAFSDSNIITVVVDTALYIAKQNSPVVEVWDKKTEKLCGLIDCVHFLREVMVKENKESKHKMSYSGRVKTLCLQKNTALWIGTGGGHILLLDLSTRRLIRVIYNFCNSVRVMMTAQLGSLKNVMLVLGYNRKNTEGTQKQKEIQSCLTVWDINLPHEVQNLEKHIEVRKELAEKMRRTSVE

CNc1nc(Nc2cnn([C@H]3CCN(C4COC4)C3)c2C)ncc1C(F)(F)F
Ki: 58 nM
